Results as given in patent publication US7524639B2, “Assay for screening antipsychotic drugs” (priority 2003, dated 2009).

Chains of the proteins cited; added tags and fusions are not shown.
UniProt P14842, whole entry: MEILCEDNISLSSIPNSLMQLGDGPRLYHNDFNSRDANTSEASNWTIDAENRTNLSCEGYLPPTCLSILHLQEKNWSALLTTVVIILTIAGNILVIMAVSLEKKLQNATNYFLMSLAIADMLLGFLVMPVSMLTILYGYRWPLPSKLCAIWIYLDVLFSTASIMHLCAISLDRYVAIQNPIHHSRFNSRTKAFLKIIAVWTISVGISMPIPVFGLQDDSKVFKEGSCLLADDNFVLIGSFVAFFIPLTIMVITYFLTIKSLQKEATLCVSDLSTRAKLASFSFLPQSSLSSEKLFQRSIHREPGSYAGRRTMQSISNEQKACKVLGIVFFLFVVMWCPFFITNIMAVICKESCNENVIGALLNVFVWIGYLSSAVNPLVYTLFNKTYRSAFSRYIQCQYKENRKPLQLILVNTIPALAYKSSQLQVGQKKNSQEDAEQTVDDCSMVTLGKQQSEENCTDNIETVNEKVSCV

Molecular target: T1, rat 5-HT2A receptor tagged with EGFP (Rattus norvegicus, UniProt P14842)
T1 construct: tagged at the C-terminus of the full-length rat 5-HT2A receptor (SR2-GFP); expressed in transfected cells; transiently transfected, differentiated N1E-115 cells (A2)
Assay: Internalization of GFP-tagged 5-HT2A receptor in SB1 cells (HEK293 stable line), confocal fluorescence microscopy
Assay type: cell-based
Settings: drug applied for 10 mins, cycloheximide present

OCCN1CCN(CCCN2c3ccccc3Sc3ccc(C(F)(F)F)cc32)CC1 [Fluphenazine]
Receptor internalization SB1 cells (pattern of internalization): Type C
